# According to ChEMBL document CHEMBL4219021, “Discovery of a Small-Molecule Degrader of Bromodomain and Extra-Terminal (BET) Proteins with Picomolar Cellular Potencies and Capable of Achieving Tumor Regression” (J Med Chem, 2018):
# Protein sequences, listed by entry. Tags and fused reporters are not part of them.
# UniProt P25440, whole entry: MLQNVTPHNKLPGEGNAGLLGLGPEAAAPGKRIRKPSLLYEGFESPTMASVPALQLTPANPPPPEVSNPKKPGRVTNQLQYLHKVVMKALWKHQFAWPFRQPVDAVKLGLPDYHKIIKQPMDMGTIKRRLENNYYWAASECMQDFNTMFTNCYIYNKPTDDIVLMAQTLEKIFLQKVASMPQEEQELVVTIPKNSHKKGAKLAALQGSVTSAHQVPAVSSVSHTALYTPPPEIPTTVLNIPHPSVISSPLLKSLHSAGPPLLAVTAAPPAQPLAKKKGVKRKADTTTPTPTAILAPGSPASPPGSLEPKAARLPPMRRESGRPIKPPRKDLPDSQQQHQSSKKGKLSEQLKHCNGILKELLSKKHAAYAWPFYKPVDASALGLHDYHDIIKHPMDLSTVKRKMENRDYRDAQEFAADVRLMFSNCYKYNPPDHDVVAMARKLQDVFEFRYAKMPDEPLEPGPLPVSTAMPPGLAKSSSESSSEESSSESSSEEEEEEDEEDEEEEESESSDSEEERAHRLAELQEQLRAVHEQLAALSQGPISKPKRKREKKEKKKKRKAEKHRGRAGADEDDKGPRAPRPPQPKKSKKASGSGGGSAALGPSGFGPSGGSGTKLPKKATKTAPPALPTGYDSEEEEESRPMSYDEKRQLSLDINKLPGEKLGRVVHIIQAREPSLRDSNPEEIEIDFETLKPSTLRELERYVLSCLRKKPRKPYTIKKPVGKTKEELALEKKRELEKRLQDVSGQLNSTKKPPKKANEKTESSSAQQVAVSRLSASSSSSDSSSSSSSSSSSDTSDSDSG
# Key:
# [1] = molecular target: T1, Bromodomain-containing protein 2 (Homo sapiens, UniProt P25440); assay: Inhibition of FAM-labeled ZBA248 binding to recombinant N-terminal His6-tagged BRD2 bromodomain 1 (72 to 205 residues) (unknown origin) expressed in Escherichia coli Rosetta2 DE3 after 30 mins by fluorescence polarization assay
# [2] = molecular target: T1, Bromodomain-containing protein 2; assay: Inhibition of FAM-labeled ZBA248 binding to recombinant N-terminal His6-tagged BRD2 bromodomain 2 (349 to 460 residues) (unknown origin) expressed in Escherichia coli Rosetta2 DE3 after 30 mins by fluorescence polarization assay
smiles,measurement,setting,value
Cc1sc2c(c1C)C(c1ccc(Cl)cc1)=N[C@@H](CC(=O)Nc1ccc(O)cc1)c1nnc(C)n1-2 [BIRABRESIB],IC50,[1],33.3 nM
same,IC50,[2],24.8 nM
